Results as given in patent US10670605B2, “Cysteine reactive probes and uses thereof” (The Scripps Research Institute, priority 2015, dated 2020).

Chains of the proteins cited; added tags and fusions are not shown. Lines headed by an entry give the natural chain unless they say otherwise; changes in a name come on top. Residues count along the entry.
UniProt Q99873, whole entry, looked up: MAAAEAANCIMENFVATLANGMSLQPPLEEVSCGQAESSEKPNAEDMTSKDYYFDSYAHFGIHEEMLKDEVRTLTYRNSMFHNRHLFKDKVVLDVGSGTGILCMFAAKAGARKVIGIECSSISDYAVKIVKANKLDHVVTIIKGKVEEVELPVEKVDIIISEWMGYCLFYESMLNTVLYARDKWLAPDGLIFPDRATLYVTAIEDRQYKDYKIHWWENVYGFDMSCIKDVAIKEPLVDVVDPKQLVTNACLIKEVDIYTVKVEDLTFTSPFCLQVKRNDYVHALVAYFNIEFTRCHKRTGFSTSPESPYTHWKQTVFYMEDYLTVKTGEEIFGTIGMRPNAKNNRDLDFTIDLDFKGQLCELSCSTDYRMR
UniProt P40763, whole entry, looked up: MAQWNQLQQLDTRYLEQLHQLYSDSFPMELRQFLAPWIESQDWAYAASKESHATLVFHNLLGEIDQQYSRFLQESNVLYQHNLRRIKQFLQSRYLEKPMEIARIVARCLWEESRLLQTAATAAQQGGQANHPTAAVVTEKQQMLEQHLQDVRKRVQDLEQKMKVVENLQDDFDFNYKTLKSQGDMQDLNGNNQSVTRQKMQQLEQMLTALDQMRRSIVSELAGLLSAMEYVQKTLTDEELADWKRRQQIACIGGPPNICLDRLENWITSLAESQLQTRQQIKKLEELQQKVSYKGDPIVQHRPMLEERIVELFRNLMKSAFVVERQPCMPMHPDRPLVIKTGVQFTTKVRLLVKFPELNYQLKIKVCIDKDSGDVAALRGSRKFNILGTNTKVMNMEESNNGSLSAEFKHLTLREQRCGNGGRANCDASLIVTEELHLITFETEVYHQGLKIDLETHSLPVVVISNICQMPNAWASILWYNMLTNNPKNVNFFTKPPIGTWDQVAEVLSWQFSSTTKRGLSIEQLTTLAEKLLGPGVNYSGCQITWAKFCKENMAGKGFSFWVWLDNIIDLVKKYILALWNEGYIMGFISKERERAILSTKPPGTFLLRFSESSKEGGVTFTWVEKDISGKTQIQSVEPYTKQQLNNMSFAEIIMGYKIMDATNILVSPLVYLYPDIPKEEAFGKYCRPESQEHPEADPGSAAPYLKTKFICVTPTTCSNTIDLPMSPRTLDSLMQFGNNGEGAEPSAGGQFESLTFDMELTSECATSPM
UniProt Q15084, 20-440 limits assumed: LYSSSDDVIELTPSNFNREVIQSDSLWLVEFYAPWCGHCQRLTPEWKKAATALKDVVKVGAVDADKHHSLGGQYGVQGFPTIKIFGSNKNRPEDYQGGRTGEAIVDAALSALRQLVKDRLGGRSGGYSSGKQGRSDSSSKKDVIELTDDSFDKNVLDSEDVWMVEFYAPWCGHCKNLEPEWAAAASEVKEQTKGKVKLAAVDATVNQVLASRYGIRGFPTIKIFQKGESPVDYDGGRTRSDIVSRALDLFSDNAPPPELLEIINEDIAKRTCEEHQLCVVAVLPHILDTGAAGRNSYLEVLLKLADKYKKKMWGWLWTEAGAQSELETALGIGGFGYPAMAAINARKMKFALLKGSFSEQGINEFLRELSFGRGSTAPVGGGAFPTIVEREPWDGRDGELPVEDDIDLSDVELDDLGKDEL
UniProt P16455, whole entry, looked up: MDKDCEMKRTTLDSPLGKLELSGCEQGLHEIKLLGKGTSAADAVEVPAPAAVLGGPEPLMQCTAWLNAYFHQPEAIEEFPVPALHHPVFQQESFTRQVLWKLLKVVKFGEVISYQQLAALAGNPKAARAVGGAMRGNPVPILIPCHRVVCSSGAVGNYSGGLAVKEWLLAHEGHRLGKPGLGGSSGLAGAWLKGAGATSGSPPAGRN
UniProt Q14790, 385-479 limits assumed: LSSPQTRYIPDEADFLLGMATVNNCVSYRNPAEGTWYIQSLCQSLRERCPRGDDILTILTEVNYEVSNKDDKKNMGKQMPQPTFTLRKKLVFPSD
UniProt Q14790, 217-374 limits assumed: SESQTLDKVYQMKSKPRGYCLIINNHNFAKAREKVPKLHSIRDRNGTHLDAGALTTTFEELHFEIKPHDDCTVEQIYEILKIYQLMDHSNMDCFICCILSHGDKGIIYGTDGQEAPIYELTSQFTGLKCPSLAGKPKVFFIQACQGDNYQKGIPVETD
UniProt P50851: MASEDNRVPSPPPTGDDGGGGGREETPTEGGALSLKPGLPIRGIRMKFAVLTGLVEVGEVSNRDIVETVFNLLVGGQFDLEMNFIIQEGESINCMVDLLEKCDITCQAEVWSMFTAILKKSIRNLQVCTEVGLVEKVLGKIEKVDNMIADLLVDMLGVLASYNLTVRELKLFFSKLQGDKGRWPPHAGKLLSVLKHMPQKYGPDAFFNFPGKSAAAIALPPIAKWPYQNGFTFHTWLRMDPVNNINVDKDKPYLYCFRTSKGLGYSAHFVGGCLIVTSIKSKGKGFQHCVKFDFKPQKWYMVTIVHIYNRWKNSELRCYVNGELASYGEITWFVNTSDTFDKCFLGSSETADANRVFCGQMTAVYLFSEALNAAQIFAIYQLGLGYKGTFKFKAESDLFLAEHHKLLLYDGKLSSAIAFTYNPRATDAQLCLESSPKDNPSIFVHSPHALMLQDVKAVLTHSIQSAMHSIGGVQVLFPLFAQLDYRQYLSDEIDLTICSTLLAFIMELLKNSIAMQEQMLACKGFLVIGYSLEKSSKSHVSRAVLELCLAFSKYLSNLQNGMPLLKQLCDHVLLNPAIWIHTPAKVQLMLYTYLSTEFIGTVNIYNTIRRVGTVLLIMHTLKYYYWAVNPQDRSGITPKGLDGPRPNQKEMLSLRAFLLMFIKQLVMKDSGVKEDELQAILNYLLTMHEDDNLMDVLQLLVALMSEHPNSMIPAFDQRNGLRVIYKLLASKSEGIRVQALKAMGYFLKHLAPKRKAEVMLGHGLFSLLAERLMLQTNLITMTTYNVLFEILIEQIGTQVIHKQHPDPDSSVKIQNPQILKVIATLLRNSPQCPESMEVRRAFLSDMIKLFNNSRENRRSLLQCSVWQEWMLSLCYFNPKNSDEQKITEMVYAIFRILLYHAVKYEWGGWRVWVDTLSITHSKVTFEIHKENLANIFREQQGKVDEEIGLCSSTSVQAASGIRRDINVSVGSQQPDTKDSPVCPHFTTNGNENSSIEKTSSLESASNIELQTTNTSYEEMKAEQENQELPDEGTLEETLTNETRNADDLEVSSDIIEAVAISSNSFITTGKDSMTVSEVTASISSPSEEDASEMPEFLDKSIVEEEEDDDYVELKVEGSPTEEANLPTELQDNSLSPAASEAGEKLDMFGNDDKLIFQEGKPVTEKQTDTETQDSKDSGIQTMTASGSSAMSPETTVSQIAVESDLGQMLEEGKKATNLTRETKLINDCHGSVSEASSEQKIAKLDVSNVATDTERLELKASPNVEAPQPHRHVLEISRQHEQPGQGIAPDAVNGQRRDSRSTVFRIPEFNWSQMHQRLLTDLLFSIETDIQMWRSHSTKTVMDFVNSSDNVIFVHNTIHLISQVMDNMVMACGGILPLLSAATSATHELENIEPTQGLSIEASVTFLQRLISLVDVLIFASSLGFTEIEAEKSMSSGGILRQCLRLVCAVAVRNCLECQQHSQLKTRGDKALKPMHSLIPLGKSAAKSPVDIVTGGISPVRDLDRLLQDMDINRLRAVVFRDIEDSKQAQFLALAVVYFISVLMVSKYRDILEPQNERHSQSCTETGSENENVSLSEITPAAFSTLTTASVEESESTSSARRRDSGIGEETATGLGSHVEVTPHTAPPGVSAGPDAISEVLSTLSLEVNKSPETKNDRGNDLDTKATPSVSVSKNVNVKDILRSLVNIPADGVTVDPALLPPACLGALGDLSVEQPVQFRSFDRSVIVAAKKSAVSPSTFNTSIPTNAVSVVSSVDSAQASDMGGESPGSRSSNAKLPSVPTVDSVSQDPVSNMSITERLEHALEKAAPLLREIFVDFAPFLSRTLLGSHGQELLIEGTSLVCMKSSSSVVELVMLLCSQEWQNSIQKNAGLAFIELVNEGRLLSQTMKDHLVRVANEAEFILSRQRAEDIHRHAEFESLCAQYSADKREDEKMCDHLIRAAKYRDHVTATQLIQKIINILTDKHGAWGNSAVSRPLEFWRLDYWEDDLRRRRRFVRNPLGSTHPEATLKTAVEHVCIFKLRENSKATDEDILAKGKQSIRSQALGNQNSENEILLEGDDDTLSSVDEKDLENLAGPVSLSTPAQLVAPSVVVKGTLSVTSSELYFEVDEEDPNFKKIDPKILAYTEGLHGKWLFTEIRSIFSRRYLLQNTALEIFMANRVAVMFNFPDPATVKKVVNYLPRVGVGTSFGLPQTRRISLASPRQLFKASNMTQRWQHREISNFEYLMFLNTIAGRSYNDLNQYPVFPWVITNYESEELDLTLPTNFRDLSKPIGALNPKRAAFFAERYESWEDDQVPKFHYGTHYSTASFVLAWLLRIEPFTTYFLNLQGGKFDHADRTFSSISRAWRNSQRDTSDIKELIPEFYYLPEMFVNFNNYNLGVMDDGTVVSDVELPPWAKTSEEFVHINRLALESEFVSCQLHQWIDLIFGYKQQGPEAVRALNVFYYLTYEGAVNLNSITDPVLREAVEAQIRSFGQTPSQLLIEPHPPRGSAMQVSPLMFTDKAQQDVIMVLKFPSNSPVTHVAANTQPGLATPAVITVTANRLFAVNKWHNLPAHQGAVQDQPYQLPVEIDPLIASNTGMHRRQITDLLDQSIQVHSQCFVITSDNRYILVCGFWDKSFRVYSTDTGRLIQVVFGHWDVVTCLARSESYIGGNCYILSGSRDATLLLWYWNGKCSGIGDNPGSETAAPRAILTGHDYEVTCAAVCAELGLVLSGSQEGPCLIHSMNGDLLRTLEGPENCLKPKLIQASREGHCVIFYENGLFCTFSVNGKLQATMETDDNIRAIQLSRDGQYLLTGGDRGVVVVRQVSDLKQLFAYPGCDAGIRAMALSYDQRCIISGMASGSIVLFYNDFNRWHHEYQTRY
UniProt P42574, 29-175 limits assumed: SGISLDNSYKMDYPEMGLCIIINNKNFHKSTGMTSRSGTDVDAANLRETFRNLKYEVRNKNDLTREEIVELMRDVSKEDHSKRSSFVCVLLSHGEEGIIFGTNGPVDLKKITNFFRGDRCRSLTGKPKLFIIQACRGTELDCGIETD
UniProt P42574, 176-277 limits assumed: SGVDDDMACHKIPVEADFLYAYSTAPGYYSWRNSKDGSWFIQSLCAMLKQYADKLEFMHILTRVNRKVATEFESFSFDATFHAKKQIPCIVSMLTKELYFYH

Tests used:
GNB2L1 C182 (P63244) = GNB2L1 C182 (P63244) (Homo sapiens, UniProt P63244); test: Competitive isoTOP-ABPP, cell lysates; assay type: binding; conditions: 500 μM, invitro, 231
Protocol: (§1) TEV digests were pressure loaded onto a 250 μm (inner diameter) fused silica capillary column packed with C18 resin (Aqua 5 μm, Phenomenex). The samples were analyzed by multidimensional liquid chromatography tandem mass spectrometry (MudPIT), using an LTQ-Velos Orbitrap mass spectrometer (Thermo Scientific) coupled to an Agilent 1200-series quaternary pump. The peptides were eluted onto a biphasic column with a 5 μm tip (100 μm fused silica, packed with C18 (10 cm) and bulk strong cation exchange resin (3 cm, SCX, Phenomenex,)) in a 5-step MudPIT experiment, using 0%, 30%, 60%, 90%, and 100% salt bumps of 500 mM aqueous ammonium acetate and using a gradient of 5-100% buffer B in buffer A (buffer A: 95% water, 5% acetonitrile, 0.1% formic acid; buffer B: 5% water, 95% acetonitrile, 0.1% formic acid) as has been described in Weerapana et al. Nat Protoc 2:1414-1425 (2007). Data was collected in data-dependent acquisition mode with dynamic exclusion enabled (20 s, repeat of 2). One full MS (MS1) scan (400-1800 m/z) was followed by 30 MS2 scans (ITMS) of the nth most abundant ions.
(§2) The ratios of heavy/light for each unique peptide (DMSO/compound treated; isoTOP-ABPP ratios, R values) were quantified with in-house CIMAGE software, using default parameters (3 ms s per peak and signal to noise threshold 2.5). Site-specific engagement of electrophilic fragments was assessed by blockade of IA-alkyne probe labeling. […] Ratios for unique peptide entries were calculated for each experiment; overlapping peptides with the same modified cysteine (e.g. different charge states, MudPIT chromatographic steps or tryptic termini) were grouped together and the median ratio was reported as the final ratio (R). The peptide ratios reported by CIMAGE were further filtered to ensure the removal or correction of low quality ratios in each individual dataset. The quality filters applied were the following: removal of half tryptic peptides; for ratios with high standard deviations from the median (90% of the median or above) the lowest ratio was taken instead of the median; removal of peptides with R=20 and only a single ms2 event triggered during the elution of the parent ion; manual annotation of all the peptides with ratios of 20, removing any peptides with low-quality elution profiles that remained after the previous curation steps. Proteome reactivity values for individual fragments were computed as the percentage of the total quantified cysteine-containing peptides with R values≥4 (defined as liganded cysteines) for each replicate experiment and the final proteome reactivity value was calculated as the mean for all replicate experiments for each fragment from both MDA-MB-231 and Ramos cellular proteomes.
(§3) Biological replicates of the same compound and cell-line were averaged if the standard deviation was below 60% of the mean; otherwise the lowest value of the ratio set was taken.

PRMT1 C109 (Q99873) = PRMT1 C109 (Q99873) (Homo sapiens, UniProt Q99873); test: Competitive isoTOP-ABPP, cell lysates; assay type: binding; conditions: 500 μM, invitro
Protocol: as §1, §2, §3

STAT3 C259 (P40763) = STAT3 C259 (P40763) (Homo sapiens, UniProt P40763); test: Competitive isoTOP-ABPP, cell lysates; assay type: binding; conditions: 500 μM, invitro
Protocol: as §1, §2, §3

PDIA6 C190 (Q15084) = PDIA6 C190 (Q15084) (Homo sapiens, UniProt Q15084); test: Competitive isoTOP-ABPP, cell lysates; assay type: binding; conditions: 500 μM, invitro
Protocol: as §1, §2, §3

MGMT C150 (P16455) = MGMT C150 (P16455) (Homo sapiens, UniProt P16455); test: Competitive isoTOP-ABPP, cell lysates; assay type: binding; conditions: 500 μM, invitro, ramos
Protocol: as §1, §2, §3

CASP8 C360 (Q14790) = CASP8 C360 (Q14790) (Homo sapiens, UniProt Q14790); test: Competitive isoTOP-ABPP, cell lysates; assay type: binding; conditions: 50 μM, Ramos and Jurkat cell lysates
Protocol: as §1, §2, §3

PDIA6 C55 (Q15084) = PDIA6 C55 (Q15084) (Homo sapiens, UniProt Q15084); test: Competitive isoTOP-ABPP, cell lysates; assay type: binding; conditions: 500 μM, invitro, 231
Protocol: as §1, §2, §3

LRBA C1704 (P50851) = LRBA C1704 (P50851) (Homo sapiens, UniProt P50851); test: Competitive isoTOP-ABPP, cell lysates; assay type: binding; conditions: 500 μM, invitro
Protocol: as §1, §2, §3

active CASP8 = active CASP8 (Homo sapiens, UniProt Q14790); test: CASP8 in vitro activity assay (substrate); assay type: biochemical; conditions: fragments 100 μM; DEVD-CHO 20 μM
Protocol: Caspase 3 and 8 assays were conducted with CASP8 activity assay kit (BioVision, K112-100) and Caspase 3 activity assay kit (Invitrogen, EnzChek® Caspase-3 Assay Kit), following the manufacturer's instructions. Briefly, recombinant Caspase 3 (10 μM) was added to soluble Ramos lysates (1 mg/mL) to a 100 nM final concentration of protease. Caspase 8 (30 μM) was added to soluble Ramos lysates to a 1 μM final concentration of protease. In triplicate, 50 μL lysate was treated with either DMSO, DEVD-CHO (“DEVD” disclosed as SEQ ID NO: 857) (20 μM) or the indicated compounds (100 μM) for 1 h, following which 50 μL of 2× reaction buffer containing 10 mM DTT and 5 μL substrate (4 mM stock in DMSO of IETD-AFC (“IETD” disclosed as SEQ ID NO: 858) for CASP8; 10 mM stock in DMSO of DEVD-AMC (“DEVD” disclosed as SEQ ID NO: 857) for CASP3) was added to each well and the samples were incubated at ambient temperature for 2 h. Caspase activity was measured from the increase in fluorescence (excitation 380 nm emission 460 nm). Experiments were performed in triplicate. Background was calculated from samples lacking the recombinant caspase.

primary human T cells [1] = test: FasL-induced apoptosis in activated primary T cells; assay type: cell-based; conditions: anti-CD3, anti-CD28-activated primary human T cells
primary human T cells [2] = test: Western blot of caspase and RIPK processing; assay type: cell-based; conditions: FasL-treated primary human T cells
active CASP3 = active CASP3 (Homo sapiens, UniProt P42574); test: Rho-DEVD-AOMK probe labeling of active CASP3; assay type: binding
Jurkat cells = test: Western blot of PARP, CASP8 and CASP3 cleavage; conditions: 30 μM

## O=C(c1ccccc1)N1CCC(N(C(=O)CCl)c2ccccc2)CC1
GNB2L1 C182 (P63244)
  isoTOP-ABPP ratio, P63244_C182: 1.5
PRMT1 C109 (Q99873); 231
  isoTOP-ABPP ratio, Q99873_C109: 1.1
PRMT1 C109 (Q99873); ramos
  isoTOP-ABPP ratio, Q99873_C109: 1.1
STAT3 C259 (P40763); 231
  isoTOP-ABPP ratio, P40763_C259: 1.3
STAT3 C259 (P40763); ramos
  isoTOP-ABPP ratio, P40763_C259: 1.8
PDIA6 C190 (Q15084); 231
  isoTOP-ABPP ratio, Q15084_C190: 1.0
PDIA6 C190 (Q15084); ramos
  isoTOP-ABPP ratio, Q15084_C190: 1.2
MGMT C150 (P16455)
  isoTOP-ABPP ratio, P16455_C150: 20.0
CASP8 C360 (Q14790)
  IA-alkyne labeling of C360 of CASP8: fully blocked
PDIA6 C55 (Q15084)
  isoTOP-ABPP ratio, Q15084_C55: 1.0
LRBA C1704 (P50851); 231
  isoTOP-ABPP ratio, P50851_C1704: 1.8
LRBA C1704 (P50851); ramos
  isoTOP-ABPP ratio, P50851_C1704: 1.6
Active CASP8
  CASP8 activity (substrate assay): but not
Primary human T cells [1]
  FasL-induced apoptosis: completely inhibited
Primary human T cells [2]
  proteolytic processing of CASP3 and CASP10: prevented
Active CASP3
  Rho-DEVD-AOMK labeling of active CASP3: not observed
Jurkat cells; FASL-treated Jurkat cells
  proteolytic processing of CASP3, CASP8 and PARP: completely blocked
Jurkat cells; STS-treated Jurkat cells
  cleavage of CASP8: substantially inhibit
  cleavage of PARP and CASP3: did not block
